Experiments:
[1] = biological target: T1, Muscarinic acetylcholine receptor M3 (Homo sapiens, UniProt P20309); assay: Displacement of [3H]-NMS from human recombinant M3 receptor expressed in CHO cells after 24 hrs by filter binding assay; format: cell-based
[2] = biological target: T2, Muscarinic acetylcholine receptor M2 (Homo sapiens, UniProt P08172); assay: Displacement of [3H]-NMS from human recombinant M2 receptor expressed in CHO cells after 24 hrs by filter binding assay; format: cell-based
[3] = biological target: T2, Muscarinic acetylcholine receptor M2; assay: Displacement of [3H]-NMS from human recombinant M2 receptor expressed in CHO cells after 2 hrs by filter binding assay; format: cell-based
[4] = biological target: T1, Muscarinic acetylcholine receptor M3; assay: Displacement of [3H]-NMS from human recombinant M3 receptor expressed in CHO cells after 2 hrs by filter binding assay; format: cell-based
[5] = biological target: T1, Muscarinic acetylcholine receptor M3; assay: Antagonist activity at human recombinant M3 receptor expressed in CHO-K1 cells assessed as inhibition of carbamoyl choline-induced calcium currents after 4 hrs by fluorimetry; format: functional, cell-based
[6] = biological target: Muscarinic acetylcholine receptor M1 (Homo sapiens, UniProt P11229); assay: Displacement of [3H]-NMS from human recombinant M1 receptor expressed in CHO cells after 24 hrs by filter binding assay; format: cell-based

Amino acid sequences for entries named in this document (tags omitted). A change or cut given only in a name is not applied to a line headed by its entry.
UniProt P20309, whole entry: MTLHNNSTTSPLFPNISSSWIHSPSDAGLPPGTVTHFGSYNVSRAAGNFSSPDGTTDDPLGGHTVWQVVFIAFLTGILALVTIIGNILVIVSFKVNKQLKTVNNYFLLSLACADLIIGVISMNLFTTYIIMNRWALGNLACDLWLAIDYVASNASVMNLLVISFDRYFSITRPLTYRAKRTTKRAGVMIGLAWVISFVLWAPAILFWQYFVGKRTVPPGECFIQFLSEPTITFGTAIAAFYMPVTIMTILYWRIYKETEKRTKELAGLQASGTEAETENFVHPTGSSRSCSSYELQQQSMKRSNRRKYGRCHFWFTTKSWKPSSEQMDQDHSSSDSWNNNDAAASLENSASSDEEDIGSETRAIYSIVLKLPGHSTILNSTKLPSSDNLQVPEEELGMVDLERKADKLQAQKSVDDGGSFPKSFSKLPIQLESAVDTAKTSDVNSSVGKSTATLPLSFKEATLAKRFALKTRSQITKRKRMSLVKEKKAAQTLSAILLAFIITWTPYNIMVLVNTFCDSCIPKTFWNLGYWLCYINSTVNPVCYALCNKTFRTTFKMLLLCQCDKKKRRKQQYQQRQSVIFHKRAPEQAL
UniProt P08172, whole entry: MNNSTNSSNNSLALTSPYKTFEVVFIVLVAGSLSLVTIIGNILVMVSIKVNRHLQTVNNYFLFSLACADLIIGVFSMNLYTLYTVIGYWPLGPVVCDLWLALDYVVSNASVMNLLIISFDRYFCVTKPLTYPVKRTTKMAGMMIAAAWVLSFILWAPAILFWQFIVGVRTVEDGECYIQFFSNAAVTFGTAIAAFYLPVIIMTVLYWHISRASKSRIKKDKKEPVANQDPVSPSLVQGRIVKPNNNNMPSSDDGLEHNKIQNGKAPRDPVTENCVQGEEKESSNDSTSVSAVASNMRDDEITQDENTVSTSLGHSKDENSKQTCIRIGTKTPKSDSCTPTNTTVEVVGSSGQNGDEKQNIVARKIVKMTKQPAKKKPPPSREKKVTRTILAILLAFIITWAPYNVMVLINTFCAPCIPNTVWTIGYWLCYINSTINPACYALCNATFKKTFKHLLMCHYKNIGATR
UniProt P11229: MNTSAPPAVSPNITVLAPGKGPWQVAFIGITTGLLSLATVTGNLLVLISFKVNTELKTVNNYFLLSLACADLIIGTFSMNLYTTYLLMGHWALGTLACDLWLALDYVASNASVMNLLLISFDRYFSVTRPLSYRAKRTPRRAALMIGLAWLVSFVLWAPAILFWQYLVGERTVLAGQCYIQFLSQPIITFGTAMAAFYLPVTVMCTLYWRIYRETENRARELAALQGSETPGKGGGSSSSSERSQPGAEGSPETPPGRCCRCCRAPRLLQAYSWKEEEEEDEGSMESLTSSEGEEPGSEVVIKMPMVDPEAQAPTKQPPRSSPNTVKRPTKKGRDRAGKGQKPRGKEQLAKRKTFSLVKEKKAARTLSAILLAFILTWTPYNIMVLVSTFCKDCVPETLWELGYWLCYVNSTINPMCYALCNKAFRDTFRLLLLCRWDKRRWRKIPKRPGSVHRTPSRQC

CC(C)[N+]1(C)C2CCC1CC(OC(=O)C(CO)c1ccccc1)C2.O.[Br-] (stereo unspecified)
Ki [1]: 0.213 nM | Ki [2]: 0.413 nM | Ki [3]: 0.48 nM | Ki [4]: 0.29 nM | Ki [5]: 0.19 nM | Ki [6]: 0.433 nM

From ChEMBL document CHEMBL1909511, “Inhalation by design: novel tertiary amine muscarinic M₃ receptor antagonists with slow off-rate binding kinetics for inhaled once-daily treatment of chronic obstructive pulmonary disease” (J Med Chem, 2011)
